In PubChem BioAssay AID493221 (Johns Hopkins Ion Channel Center, 2011) one finds inhibition data, which are given here for 1 molecule.

Sequences of proteins named here, by UniProt entry; tags and fusion partners are left off. A change or cut given only in a name is not applied to a line headed by its entry.
UniProt Q9GZV3, whole entry, stated change not applied: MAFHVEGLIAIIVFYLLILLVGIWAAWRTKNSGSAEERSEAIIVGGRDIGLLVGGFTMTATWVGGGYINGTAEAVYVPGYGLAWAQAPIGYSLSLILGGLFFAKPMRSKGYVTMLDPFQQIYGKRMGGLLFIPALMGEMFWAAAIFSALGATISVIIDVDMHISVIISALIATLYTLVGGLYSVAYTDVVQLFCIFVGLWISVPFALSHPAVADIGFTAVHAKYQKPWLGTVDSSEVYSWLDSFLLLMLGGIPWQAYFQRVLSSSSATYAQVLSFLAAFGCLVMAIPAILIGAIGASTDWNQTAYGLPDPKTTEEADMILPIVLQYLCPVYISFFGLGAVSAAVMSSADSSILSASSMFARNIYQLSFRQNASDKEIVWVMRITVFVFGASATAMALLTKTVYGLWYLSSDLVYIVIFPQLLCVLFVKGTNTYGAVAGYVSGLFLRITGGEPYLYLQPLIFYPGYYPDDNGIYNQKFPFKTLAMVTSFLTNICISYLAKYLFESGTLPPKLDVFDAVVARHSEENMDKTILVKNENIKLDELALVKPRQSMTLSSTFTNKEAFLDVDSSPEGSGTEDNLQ

The list shows a part of the results, in another mix than the full data. Some of these compounds have results that are not shown, active ones among them. Active and inactive are the calls of the source.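 Rule for the calls: active = choline transporter activity left, mean of duplicates at 10 µM, below buffer-only control mean minus 3 SD; inactive = the rest.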

This test addresses High affinity choline transporter 1 (Homo sapiens) (UniProt Q9GZV3). As to the kind of experiment: CHT inhibitors, confirmation, cell-based, membrane potential dye, duplicate (AID 493221). The settings on record: CHT-expressing cells, at 10 µM, LV-to-AA substituted CHT, HEK293 cells.
Regarding `CCCCC(CC)C(=O)N1CCN(C/C=C/c2ccccc2)CC1` (stereo unspecified), the inhibition was inactive: 0%.
